Consider 1 compound from paper PMC8412031 (ACS chemical neuroscience, 2018).

The chains behind the UniProt entries cited, without tags or fusion partners.
UniProt P14416, whole entry: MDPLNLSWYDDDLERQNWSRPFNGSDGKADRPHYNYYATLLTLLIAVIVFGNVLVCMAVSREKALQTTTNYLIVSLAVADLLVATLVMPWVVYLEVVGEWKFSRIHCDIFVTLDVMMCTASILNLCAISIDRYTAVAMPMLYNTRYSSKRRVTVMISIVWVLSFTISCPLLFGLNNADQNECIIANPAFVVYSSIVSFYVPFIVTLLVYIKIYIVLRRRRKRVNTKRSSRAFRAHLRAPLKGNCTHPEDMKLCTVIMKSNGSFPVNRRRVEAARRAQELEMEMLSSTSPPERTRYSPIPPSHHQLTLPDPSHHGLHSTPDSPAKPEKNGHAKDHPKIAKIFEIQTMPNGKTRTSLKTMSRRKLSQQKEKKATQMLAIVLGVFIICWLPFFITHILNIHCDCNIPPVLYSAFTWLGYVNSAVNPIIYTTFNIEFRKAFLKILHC

In this test the target is dopamine D2 receptor (human D2long) (Homo sapiens, UniProt P14416). Description: radioligand competition vs [3H]MCL-536 on CHO-D2long membranes. The test is classed as binding.

As for `CCN1CCC[C@H]1CNC(=O)c1c(O)c(Cl)cc(Cl)c1OC` [raclopride], the Ki came to 0.9 nM.
